Biological target: T1, PPARα (Homo sapiens, UniProt Q07869)
T1 construct: PPARα (aa 167 to 469); expressed in transfected cells; host or cells: BHK21 (ATCC CCL10)
T1 sequence (Q07869 167-468 limits assumed): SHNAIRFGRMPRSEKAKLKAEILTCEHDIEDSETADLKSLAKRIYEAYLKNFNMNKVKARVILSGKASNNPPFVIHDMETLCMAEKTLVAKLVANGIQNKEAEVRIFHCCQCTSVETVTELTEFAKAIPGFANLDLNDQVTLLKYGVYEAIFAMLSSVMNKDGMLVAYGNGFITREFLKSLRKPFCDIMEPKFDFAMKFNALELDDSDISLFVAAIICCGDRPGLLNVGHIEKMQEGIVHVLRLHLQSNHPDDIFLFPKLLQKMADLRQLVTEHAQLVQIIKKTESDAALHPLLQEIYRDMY
Assay: Luciferase transcriptional reporter gene assay, pFA-PPARα-LBD in BHK21 cells
Type: cell-based

SMILES: CN(CCOc1ccc(CC2SC(=O)NC2=O)cc1)c1ccccn1 (stereo not shown) [Rosiglitazone, reference compound]
- PPARα EC50: inactive

Reference: patent US7098228B2, “Indolyl derivatives” (Hoffmann-La Roche Inc., priority 2002, dated 2006)
